Results reported in patent publication US20050239757A1, “Hormone treatment of macular degeneration” (priority 2004, published 2005).

Tests used:
[1] = tested on: serum anti-estrogen IgG antibodies; assay: Competition ELISA: absorption of serum IgG anti-estrogen with specific and non-specific antigens; assay type: binding, human; conditions: for Serum anti-estrogen IgG level after absorption: antigen 250 μg/mL, optical density at 405 nm
Procedure: (§1) Enzyme-linked immunosorbent assay (ELISA) was used for testing antibodies against estrogen and progesterone in the sera of patients with premenstrual asthma and with control subjects. […] Plates were incubated overnight at 4° C. and then washed three times with […] of Tris-buffered saline (TBS) containing 0.05% Tween 20, pH 7.4. […] The optimal dilution of serum was determined by checkerboard dilution and found to be 1:100 for IgG and IgM and 1:2 for IgE. Plates were incubated for 2 h (for IgG and IgM) and overnight (for IgE), and then washed four times with PBS-Tween 20. Alkaline-phosphatase-conjugated goat anti-human IgG, IgM or IgE F(ab′)2 fragment at optimal dilution of 1:700 (IgG); 1:500 (IgM) and 1:250 (IgE) was added to corresponding wells. The plates were then incubated for an additional 2 h at room temperature. After washing five times with TBS-Tween buffer, the enzyme reaction was started by adding 100 μl of para-nitrophenylphosphate in 0.1 mL of diethanolamine buffer (1 mg/ml) containing 1 mM MgCl2 and sodium azide, pH 9.8. The reaction was stopped 45 minutes later with 50 μl of 1 N NaOH. The optical density was read at 405 nm (OD405) with a microtiter reader.
(§2) 100 μl of serum diluent buffer was added to all wells. […] After a 60-minute incubation, 100 μl serum anti-estrogen or anti-progesterone was added to all wells. […] Results were calculated as a percentage of inhibition in antigen-antibody reaction.
(§3) To examine whether antibodies to estrogen or progesterone are specific or cross-reactive, competition ELISA was performed by adding specific and non-specific antigens in liquid phase and examined prevention of serum antibody binding to the antigen in solid phase. […] For IgE anti-estrogen this inhibition by estrogen-BSA was between 54-62%, and with progesterone-BSA from 37-43%. […] This cross-reaction between estrogen and progesterone antibodies may be due to structural similarities between these two hormones.

[2] = tested on: serum anti-estrogen IgE antibodies; assay: Competition ELISA: absorption of serum IgE anti-estrogen with specific and non-specific antigens; assay type: binding, human; conditions: for Serum anti-estrogen IgE level after absorption: antigen 250 μg/mL, optical density at 405 nm
Procedure: as §1, §2, §3

[3] = antigen added to the liquid phase

With human serum albumin [HSA] the “Absorption of serum IgG antibodies, in words” value [1, 3] was “did not absorb”, the “Serum anti-estrogen IgG level after absorption” value (“Serum anti-estrogen IgG level” for short) ([1]; serum sample 1, before absorption 1.83) was 1.81 and the “Serum anti-estrogen IgG level” value ([1]; serum sample 2, before absorption 1.25) was 1.19. For the same substance, the “Serum anti-estrogen IgG level” value ([1]; serum sample 3, before absorption 0.76) was 0.78, the “Absorption of serum IgE antibodies, in words” value [2, 3] was “did not absorb” and the “Serum anti-estrogen IgE level after absorption” value (“Serum anti-estrogen IgE level” below) ([2]; serum sample 1, before absorption 2.15) was 2.11. For the same substance, the “Serum anti-estrogen IgE level” value ([2]; serum sample 2, before absorption 1.66) was 1.59 and the “Serum anti-estrogen IgE level” value ([2]; serum sample 3, before absorption 1.34) was 1.21.
